Data: PubChem BioAssay AID1688 (National Center for Advancing Translational Sciences (NCATS), 2009)
The list shows a part of the results, in another mix than the full data. Inconclusive results are not listed. Some salts and complexes are drawn in separate pieces, as the source files them; their charges need not balance. Calls of active or inactive are those of the source. The call rests on the fitted dose curve; in most records, active means well fitted inhibition curve with a large enough effect; inconclusive means small, poorly fitted or top-dose-only effect, or effect the other way; inactive means no such curve, though single readings can be large or run the other way.

assay: qHTS Multiplex Assay to Identify Dual Action Probes in a Cell Model of Huntington: Aggregate Formation (GFP); settings: PC12 HttQ103-GFP aggregates, Acumen cytometry, 40 h; at 46.1 µM (top of the series) unless noted; further: nearly all actives have a fitted effect of over 60% in size
On the % scale 0 is the no-effect control and ±100 the full control effect.

Structure (SMILES) | activity change, negative = inhibition
COc1ccc(C(=O)NCC2(N3CCOCC3)CCCCC2)cc1OC | inactive: -5.41%
O=C(OC1CN2CCC1CC2)C1c2ccccc2C=Cc2ccccc21 (configuration not stated) | inactive: 9.7%
O=C(O)c1cccc(Nc2c([N+](=O)[O-])cc([N+](=O)[O-])cc2[N+](=O)[O-])c1 | inactive: -23.8% [at 9.22 µM]
N/C(=N\O)c1c(N)no[n+]1[O-] | inactive: 9.22%
CCOC(=O)C(CC)C1=NC(C)(C)Cc2ccccc21.O=[N+]([O-])c1cc([N+](=O)[O-])c(O)c([N+](=O)[O-])c1 (configuration not stated) | inactive: 10.4% [at 9.22 µM]
N#Cc1ccc(C(=O)NCC2(N3CCCCC3)CCCCC2)cc1 | inactive: -3.41%
c1ccc(CN2CCC(Nc3ccccc3)CC2)cc1 | inactive: 6.89%
Fc1ccccc1NC1CCN(Cc2ccccc2)CC1 | inactive: 10.2%
CN(C)c1ccc(C(=O)NCC2(N3CCCCC3)CCCCC2)cc1 | inactive: 4.69%
CCN1CCC(Nc2cccc(F)c2)CC1 | inactive: -3.24%
CC(C)(C)OC(=O)N1CCC(Nc2ccccc2)CC1 | inactive: 19.7%
CCOc1ncccc1C(=O)NCC1(N2CCOCC2)CCCCC1 | inactive: -0.8%
CCCOc1ccc(C)cc1CN(CCCl)CCCl | inactive: -7.52% [at 9.22 µM]
COc1cc(OC)cc(C(=O)NCC2(N3CCOCC3)CCCCC2)c1 | inactive: -3.19%
CCC(CO)(C(=O)OC1CN2CCC1CC2)c1ccccc1 (configuration not stated) | inactive: 22.3% [at 9.22 µM]
COc1ccc(C(=O)NCC2(N3CCCCC3)CCCCC2)c(OC)c1OC | inactive: 17.6%

Structure (SMILES) | activity change, negative = inhibition
N#CC1(Nc2ccccc2)CCN(Cc2ccccc2)CC1 | inactive: -17.5% [at 9.22 µM]
O=C(OC1CN2CCC1CC2)C1c2ccccc2Oc2ccccc21 (configuration not stated) | inactive: -0.585%
CCOC(=O)N1CCC(Nc2ccc(OC)cc2)CC1 | inactive: 0% [at 9.22 µM]
O=C(NCC1(N2CCOCC2)CCCCC1)c1cc2ccccc2o1 | inactive: 0.734% [at 9.22 µM]
COc1ccc(NC2CCN(CCc3ccccc3)CC2)c(OC)c1 | inactive: 7.61%
CCOc1ccc(C)cc1CN(CCCl)CCCl | inactive: -12.9% [at 9.22 µM]
Cc1ccc(OCC(C)C)c(CN(CCCl)CCCl)c1 | inactive: 16% [at 9.22 µM]
N#CC1(Nc2ccccc2)CCN(CCc2ccccc2)CC1 | inactive: -6.04%
O=C(NCC1(N2CCCCC2)CCCCC1)c1cccc([N+](=O)[O-])c1 | inactive: -14.2%
O=C(NCC1(N2CCOCC2)CCCCC1)c1cc(=O)[nH]c2ccccc12 | inactive: -12% [at 9.22 µM]
CN1CCN(CCOC(=O)C(O)(c2ccccc2)c2ccccc2)CC1 | inactive: 1.7%
COc1ccc(NC2CCN(C(=O)OC(C)(C)C)CC2)cc1 | inactive: 13.2%
COc1ccc(CN(CCCl)CCCl)cc1Cl | inactive: 15.1% [at 9.22 µM]
CN(C)c1cccc(C(=O)NCC2(N3CCCCC3)CCCCC2)c1 | inactive: -2.74%
O=C(OC1CN2CCC1CC2)c1ccc([N+](=O)[O-])cc1 (configuration not stated) | inactive: -9.09% [at 9.22 µM]
COc1ccc2c(c1O)-c1c(O)c(OC)cc3c1[C@H](C2)[N+](C)(C)CC3.O=[N+]([O-])c1cc([N+](=O)[O-])c([O-])c([N+](=O)[O-])c1[O-] | inactive: -36.5% [at 9.22 µM]
